## CycPeptMPDB entries from one study

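Lipid, pH, incubation time, direction and concentration are not recorded in the data file. Other peptides of the study may be missing here. Peptides that the database sets to -10, its floor, are left out.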

PAMPA measures passive passage through an artificial lipid membrane.
P is given in units of 10^-6 cm/s (from log10 values with two decimals); larger means faster passage.

{"smiles": "CC(C)C[C@@H]1NC(=O)[C@@H](CC(C)C)N(C)C(=O)[C@@H](C)NC(=O)[C@H](Cc2ccccc2)NC(=O)[C@@H](CC(C)C)N(C)C(=O)[C@@H]2CCCN2C1=O", "PAMPA (10^-6 cm/s)": "5"}
{"smiles": "CC(C)C[C@@H]1NC(=O)[C@@H]2CCCN2C(=O)[C@@H](CC(C)C)N(C)C(=O)[C@@H](CC(C)C)N(C)C(=O)[C@H](C)NC(=O)[C@@H]2CCCN2C(=O)[C@H](Cc2ccccc2)NC1=O", "PAMPA (10^-6 cm/s)": "1.9"}
{"smiles": "CC(C)C[C@H]1NC(=O)[C@H](C)N(C)C(=O)[C@H]2CCCN2C(=O)[C@H](Cc2ccccc2)NC(=O)[C@H](CC(C)C)N(C)C(=O)[C@H]2CCCN2C(=O)[C@@H](CC(C)C)NC1=O", "PAMPA (10^-6 cm/s)": "1.1"}
{"smiles": "CC(C)C[C@@H]1C(=O)N[C@@H](Cc2ccccc2)C(=O)N[C@H](C)C(=O)N[C@H](CC(C)C)C(=O)N[C@H](CC(C)C)C(=O)N2CCC[C@H]2C(=O)N1C", "PAMPA (10^-6 cm/s)": "0.17"}
{"smiles": "CCCN1CC(=O)N(Cc2ccccc2)CC(=O)N(C)[C@H](CC(C)C)C(=O)N2CCC[C@H]2C(=O)N[C@@H](CC(C)C)C(=O)N[C@@H](Cc2ccccc2)C(=O)N2CCC[C@H]2C1=O", "PAMPA (10^-6 cm/s)": "1"}
{"smiles": "CC(C)C[C@@H]1NC(=O)[C@H](CC(C)C)N(C)C(=O)C[C@H](Cc2ccccc2)NC(=O)[C@H](Cc2ccccc2)NC(=O)[C@H](CC(C)C)N(C)C(=O)[C@@H]2CCCN2C1=O", "PAMPA (10^-6 cm/s)": "6.6"}
{"smiles": "CC(C)C[C@H]1NC(=O)[C@H](C)N(C)C(=O)[C@H](Cc2ccccc2)NC(=O)[C@H](CC(C)C)N(C)C(=O)[C@H]2CCCN2C(=O)C[C@H](Cc2ccccc2)NC1=O", "PAMPA (10^-6 cm/s)": "6.8"}
{"smiles": "CC(C)C[C@@H]1C(=O)N[C@H](CC(C)C)C(=O)N2CCC[C@@H]2C(=O)N(C)[C@@H](CC(C)C)C(=O)N[C@@H](Cc2ccccc2)C(=O)N2CCC[C@@H]2C(=O)N[C@H](C)C(=O)N1C", "PAMPA (10^-6 cm/s)": "1.5"}
{"smiles": "CC(C)C[C@@H]1NC(=O)[C@@H](CC(C)C)NC(=O)[C@@H](C)N(C)C(=O)[C@@H]2CCCN2C(=O)[C@H](Cc2ccccc2)NC(=O)[C@@H](CC(C)C)N(C)C(=O)[C@@H]2CCCN2C1=O", "PAMPA (10^-6 cm/s)": "1.6"}
{"smiles": "CC(C)C[C@H]1NC(=O)C[C@H](Cc2ccccc2)NC(=O)[C@H]2CCCN2C(=O)[C@H](Cc2ccccc2)NC(=O)[C@H](CC(C)C)N(C)C(=O)[C@@H]2CCCN2C(=O)CN(Cc2ccccc2)C1=O", "PAMPA (10^-6 cm/s)": "3"}
{"smiles": "CCCN1CC(=O)N[C@H](CC(C)C)C(=O)N[C@@H](CC(C)C)C(=O)N2CCC[C@@H]2C(=O)N[C@H](CC(C)C)C(=O)N[C@@H](Cc2ccccc2)C(=O)N2CCC[C@@H]2C1=O", "PAMPA (10^-6 cm/s)": "2.3"}
{"smiles": "CCCN1CC(=O)N[C@@H](CC(C)C)C(=O)N[C@H](CC(C)C)C(=O)N2CCC[C@@H]2C(=O)N[C@H](CC(C)C)C(=O)N[C@@H](Cc2ccccc2)C1=O", "PAMPA (10^-6 cm/s)": "0.91"}
{"smiles": "CC(C)C[C@@H]1NC(=O)C[C@H](Cc2ccccc2)NC(=O)[C@H]2CCCN2C(=O)[C@H](Cc2ccccc2)NC(=O)[C@H](CC(C)C)NC(=O)[C@H]2CCCN2C(=O)[C@@H](CC(C)C)NC1=O", "PAMPA (10^-6 cm/s)": "0.28"}
{"smiles": "CC(C)C[C@H]1NC(=O)[C@H](CC(C)C)N(C)C(=O)[C@H](C)NC(=O)[C@@H]2CCCN2C(=O)[C@H](Cc2ccccc2)NC(=O)CN(Cc2ccccc2)C(=O)[C@@H]2CCCN2C1=O", "PAMPA (10^-6 cm/s)": "5.5"}
{"smiles": "CC(C)C[C@H]1NC(=O)[C@@H](C)NC(=O)[C@@H]2CCCN2C(=O)[C@H](Cc2ccccc2)NC(=O)[C@@H](CC(C)C)NC(=O)[C@@H]2CCCN2C(=O)C[C@H](Cc2ccccc2)NC1=O", "PAMPA (10^-6 cm/s)": "0.3"}
{"smiles": "CC(C)C[C@@H]1C(=O)N(C)[C@@H](CC(C)C)C(=O)N2CCC[C@H]2C(=O)N(C)[C@@H](CC(C)C)C(=O)N[C@@H](Cc2ccccc2)C(=O)N2CCC[C@H]2C(=O)N(C)[C@H](C)C(=O)N1C", "PAMPA (10^-6 cm/s)": "4.4"}
{"smiles": "CC(C)C[C@H]1NC(=O)[C@H](C)N(C)C(=O)[C@H](Cc2ccccc2)NC(=O)[C@H](CC(C)C)N(C)C(=O)[C@@H]2CCCN2C(=O)[C@@H](CC(C)C)NC1=O", "PAMPA (10^-6 cm/s)": "1.9"}
{"smiles": "CC(C)C[C@@H]1NC(=O)[C@H]2CCCN2C(=O)[C@H](CC(C)C)N(C)C(=O)[C@@H](CC(C)C)N(C)C(=O)[C@H](C)NC(=O)[C@H]2CCCN2C(=O)[C@H](Cc2ccccc2)NC1=O", "PAMPA (10^-6 cm/s)": "0.68"}

The 2 lowest values of PAMPA among the entries above:

{"smiles": "CC(C)C[C@@H]1C(=O)N[C@@H](Cc2ccccc2)C(=O)N[C@H](C)C(=O)N[C@H](CC(C)C)C(=O)N[C@H](CC(C)C)C(=O)N2CCC[C@H]2C(=O)N1C", "PAMPA (10^-6 cm/s)": "0.17"}
{"smiles": "CC(C)C[C@@H]1NC(=O)C[C@H](Cc2ccccc2)NC(=O)[C@H]2CCCN2C(=O)[C@H](Cc2ccccc2)NC(=O)[C@H](CC(C)C)NC(=O)[C@H]2CCCN2C(=O)[C@@H](CC(C)C)NC1=O", "PAMPA (10^-6 cm/s)": "0.28"}

Source: CycPeptMPDB (Li et al. 2023), which took these values from Townsend et al. 2020, doi:10.26434/chemrxiv.13335941.v1.